Results published in US20220380431A1, “GLYCOPEPTIDE ANALOGS OF SECRETIN FAMILY PEPTIDES” (ARIZONA BOARD OF REGENTS ON BEHALF OF THE UNIVERSITY OF …, priority 2017, published 2022).

The chains behind the UniProt entries cited, without tags or fusion partners. Residues count along the entry.
UniProt P32241, 31-457: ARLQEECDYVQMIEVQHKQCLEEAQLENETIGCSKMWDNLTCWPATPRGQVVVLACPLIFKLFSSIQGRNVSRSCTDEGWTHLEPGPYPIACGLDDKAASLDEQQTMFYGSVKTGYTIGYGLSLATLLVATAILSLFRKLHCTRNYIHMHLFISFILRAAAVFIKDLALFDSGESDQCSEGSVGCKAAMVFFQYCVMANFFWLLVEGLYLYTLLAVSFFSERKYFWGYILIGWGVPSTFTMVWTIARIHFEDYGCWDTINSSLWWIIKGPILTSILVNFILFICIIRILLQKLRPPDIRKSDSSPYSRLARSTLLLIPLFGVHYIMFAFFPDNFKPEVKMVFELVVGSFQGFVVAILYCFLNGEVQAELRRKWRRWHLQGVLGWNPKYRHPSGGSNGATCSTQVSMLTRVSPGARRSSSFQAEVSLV

Columns and labels:
Format in all cases: cell-based
[1] = target: VPAC1 (Homo sapiens, UniProt P32241); assay: Assay of peptides at PAC and VPAC receptors: VPAC1 (EC50/EMax)
[2] = target: T1, PAC1 (Homo sapiens, UniProt P41586); assay: Assay of peptides at PAC and VPAC receptors: PAC1 (EC50/EMax)
T1 sequence (P41586 21-468): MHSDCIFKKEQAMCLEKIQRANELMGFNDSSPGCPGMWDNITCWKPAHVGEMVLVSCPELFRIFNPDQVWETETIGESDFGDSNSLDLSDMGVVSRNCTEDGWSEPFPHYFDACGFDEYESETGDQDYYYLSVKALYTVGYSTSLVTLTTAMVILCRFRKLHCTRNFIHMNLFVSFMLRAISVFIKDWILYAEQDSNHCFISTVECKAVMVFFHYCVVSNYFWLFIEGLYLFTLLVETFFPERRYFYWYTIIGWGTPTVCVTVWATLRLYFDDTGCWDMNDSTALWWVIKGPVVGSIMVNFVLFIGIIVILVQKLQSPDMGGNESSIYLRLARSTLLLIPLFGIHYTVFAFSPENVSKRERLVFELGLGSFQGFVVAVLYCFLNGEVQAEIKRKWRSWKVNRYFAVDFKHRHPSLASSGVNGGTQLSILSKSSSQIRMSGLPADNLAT

[3] = target: T2, VPAC2 (Homo sapiens, UniProt P41587); assay: Assay of peptides at PAC and VPAC receptors: VPAC2 (EC50/EMax)
T2 sequence (P41587 24-438): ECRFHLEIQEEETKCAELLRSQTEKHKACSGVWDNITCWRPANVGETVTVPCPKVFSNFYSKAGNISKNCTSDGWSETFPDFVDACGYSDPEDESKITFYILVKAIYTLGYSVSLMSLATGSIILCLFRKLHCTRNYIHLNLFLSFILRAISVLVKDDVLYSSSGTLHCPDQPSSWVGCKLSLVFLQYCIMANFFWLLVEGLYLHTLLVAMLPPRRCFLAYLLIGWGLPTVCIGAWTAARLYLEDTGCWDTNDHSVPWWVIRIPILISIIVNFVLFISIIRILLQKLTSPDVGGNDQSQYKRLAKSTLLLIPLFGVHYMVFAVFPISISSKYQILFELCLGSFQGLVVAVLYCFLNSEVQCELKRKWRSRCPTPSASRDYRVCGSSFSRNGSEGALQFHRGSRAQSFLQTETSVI

Row | EC50 [1] [µM] | Emax [1] [%] | EC50 [2] [µM] | Emax [2] [%] | EC50 [3] [µM] | Emax [3] [%] | SMILES
1 | 0.0013 | 90 | 0.0255 | 85 | 0.241 | 104 | CCC[C@H](NC(=O)[C@H](CCC(N)=O)NC(=O)[C@H](CCCCN)NC(=O)[C@H](CCCNC(=N)N)NC(=O)[C@H](Cc1ccc(O)cc1)NC(=O)[C@H](CCCNC(=N)N)NC(=O)[C@H](CO)NC(=O)[C@H](Cc1ccc(O)cc1)NC(=O)[C@H](CO)NC(=O)[C@H](CC(=O)O)NC(=O)[C@@H](NC(=O)[C@H](Cc1ccccc1)NC(=O)[C@@H](NC(=O)CNC(=O)[C@H](CC(=O)O)NC(=O)[C@@H](CO)NC(=O)[C@@H](N)Cc1c[nH]cn1)[C@@H](C)CC)[C@@H](C)O)C(=O)N[C@@H](C)C(=O)N[C@H](C(=O)N[C@@H](CCCCN)C(=O)N[C@@H](CCCCN)C(=O)N[C@@H](Cc1ccc(O)cc1)C(=O)N[C@@H](CC(C)C)C(=O)N[C@@H](C)C(=O)N[C@@H](C)C(=O)N[C@H](C(=O)N[C@@H](CC(C)C)C(=O)N[C@@H](CO[C@@H]1O[C@H](CO)[C@@H](O)[C@H](O)[C@H]1O)C(N)=O)C(C)C)C(C)C [CRA3000]
2 | 0.0048 | 90 | 0.0545 | 86 | 0.654 | 107 | CCC[C@H](NC(=O)[C@H](CCC(N)=O)NC(=O)[C@H](CCCCN)NC(=O)[C@H](CCCNC(=N)N)NC(=O)[C@H](Cc1ccc(O)cc1)NC(=O)[C@H](CCCNC(=N)N)NC(=O)[C@H](CO)NC(=O)[C@H](Cc1ccc(O)cc1)NC(=O)[C@H](CO)NC(=O)[C@H](CC(=O)O)NC(=O)[C@@H](NC(=O)[C@H](Cc1ccccc1)NC(=O)[C@@H](NC(=O)CNC(=O)[C@H](CC(=O)O)NC(=O)[C@@H](CO)NC(=O)[C@@H](N)Cc1c[nH]cn1)[C@@H](C)CC)[C@@H](C)O)C(=O)N[C@@H](C)C(=O)N[C@H](C(=O)N[C@@H](CCCCN)C(=O)N[C@@H](CCCCN)C(=O)N[C@@H](Cc1ccc(O)cc1)C(=O)N[C@@H](CC(C)C)C(=O)N[C@@H](C)C(=O)N[C@@H](C)C(=O)N[C@H](C(=O)N[C@@H](CO[C@@H]1O[C@H](CO)[C@@H](O)[C@H](O)[C@H]1O)C(N)=O)C(C)C)C(C)C [CRA3001]

Row | SMILES | EC50 [1] [µM] | Emax [1] [%] | EC50 [2] [µM] | Emax [2] [%] | EC50 [3] [µM] | Emax [3] [%]
3 | CCC[C@H](NC(=O)[C@H](CCC(N)=O)NC(=O)[C@H](CCCCN)NC(=O)[C@H](CCCNC(=N)N)NC(=O)[C@H](Cc1ccc(O)cc1)NC(=O)[C@H](CCCNC(=N)N)NC(=O)[C@H](CO)NC(=O)[C@H](Cc1ccc(O)cc1)NC(=O)[C@H](CO)NC(=O)[C@H](CC(=O)O)NC(=O)[C@H](C)NC(=O)[C@H](Cc1ccccc1)NC(=O)[C@@H](NC(=O)CNC(=O)[C@H](CC(=O)O)NC(=O)[C@@H](CO)NC(=O)[C@@H](N)Cc1c[nH]cn1)[C@@H](C)CC)C(=O)N[C@@H](C)C(=O)N[C@H](C(=O)N[C@@H](CCCCN)C(=O)N[C@@H](CCCCN)C(=O)N[C@@H](Cc1ccc(O)cc1)C(=O)N[C@@H](CC(C)C)C(=O)N[C@@H](C)C(=O)N[C@@H](C)C(=O)N[C@H](C(=O)N[C@@H](CC(C)C)C(=O)N[C@@H](CO[C@@H]1O[C@H](CO)[C@@H](O)[C@H](O)[C@H]1O)C(N)=O)C(C)C)C(C)C [CRA3003] | 0.0788 | 93 | – | -71 | – | -42
